## Binding of CDR-mutated scFvs to a peptide of the spike HR2 region

Values reported by Li et al. 2023, doi:10.1038/s41467-023-39022-2 (FLAb copy).

Target: peptide PDVDLGDISGINAS, taken from heptad repeat 2 (HR2) of SARS-CoV-2 spike.

Each scFv is VH, a 15-residue (Gly4Ser)3 linker, VL, as in the parent Ab-14, and differs from it in the CDRs of the light chain only.
VH: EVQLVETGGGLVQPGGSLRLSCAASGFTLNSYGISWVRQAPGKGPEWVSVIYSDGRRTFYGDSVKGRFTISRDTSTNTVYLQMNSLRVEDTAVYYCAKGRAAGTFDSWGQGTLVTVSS
VL: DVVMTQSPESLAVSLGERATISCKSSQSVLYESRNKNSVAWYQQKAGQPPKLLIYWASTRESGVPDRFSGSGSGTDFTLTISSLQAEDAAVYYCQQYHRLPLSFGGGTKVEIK

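The starting antibody came from a phage panning campaign against this peptide. The variants were designed computationally from a first round of random CDR variants and then made and measured. Several design methods are mixed in this list. AlphaSeq pools MATa yeast showing the antibodies with MATalpha yeast showing the peptide. Binding brings cells together so that they mate, and sequencing counts the barcode pairs among the diploids. Each replicate has its own calibration line, from reference interactions of the BCL2 family. There are six technical replicates.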

Variants are written as CDR1, CDR2 and CDR3 of the light chain (limits as in the source). Parent: KSSQSVLYESRNKNSVA, WASTRES, QQYHRLPLS. Each Kd is an estimate from the mating assay, the geometric mean of the replicates in which the pair was seen; lower is stronger. An entry "nd" has no value in the source: the pair was not observed among the diploids in any replicate. This suggests poor binding but is not conclusive.

KSSQSTLGESRNKNSVA / WASTRES / QQYHRLPLS: 22 nM (5 of 6 replicates; controls 0 of 18).
KSSQSVLYESRNRNSVA / EASTRES / QQYHRLPLS: 2.8 nM (6 of 6 replicates; controls 0 of 18).
TLALRTSYGNGLNKAIA / DVSIKDY / QQYARLPLL: 48 nM (5 of 6 replicates; controls 0 of 18).
LISQSVEYESRDKNSVA / NASTRLS / QQYHRLPLS: 1.6 nM (6 of 6 replicates; controls 0 of 18).
MISDLTMYGSRNVNSVA / DLSQRGS / QQYHRLPLS: 1.1 nM (6 of 6 replicates; controls 1 of 18).
KVSQSVLYESRMKNSVA / DASTRCS / QQYHRLPLK: 1.4 nM (6 of 6 replicates; controls 0 of 18).
HLSANMWMESSQWDAVA / QGDIANN / QQYSRLPLS: 2.4 nM (6 of 6 replicates; controls 3 of 18).
KLSNSYEYQSRNMNSVA / NASTRLS / QAYHRLPLS: 5.7 nM (6 of 6 replicates; controls 0 of 18).
KLAQSDLYESRNKNSVA / EASTRES / QQYHRLPLS: 550 pM (6 of 6 replicates; controls 0 of 18).
NISFEMVSPHNHSNSVA / STSKRCS / QQYFTLPLS: 9.7 nM (6 of 6 replicates; controls 0 of 18).
KSSQSVMNESRNKNSVA / DASTRES / QTYHRLPLS: 5.9 nM (6 of 6 replicates; controls 1 of 18).
KLSCTSEMELKNRNSVA / ELVTRMS / QQYNRLPLS: 5.5 nM (6 of 6 replicates; controls 0 of 18).
KFMQSQLYESRNKNSVA / NASQRES / QQYHRLPLS: 980 pM (6 of 6 replicates; controls 1 of 18).
NLNVSEDQWPSSKNAIA / QTTCRVL / QQYMHLPLS: 3.5 nM (6 of 6 replicates; controls 2 of 18).
KLWAYFQGLESKMQNVA / DGSYRST / QQYDRLPLS: 14 nM (6 of 6 replicates; controls 0 of 18).
MIHESYGLMSHKQSSIA / DNSTRED / QQYDRLPLS: 250 nM (1 of 6 replicates; controls 2 of 18).
KSSQQVLYEDKMVNSVA / HASQRMS / QQYHRLPLS: 11 nM (6 of 6 replicates; controls 0 of 18).
KLSPSVLYESRNKNSVA / EASTREQ / QQYHRLPLS: 370 pM (6 of 6 replicates; controls 2 of 18).
HSSQSVPYESRNKNSVA / DASTRES / QQYHRLPLS: 2.2 nM (6 of 6 replicates; controls 1 of 18).
KISFQTLIESKNLNSVA / EMTTREY / QDYDRLPLS: nd (0 of 6 replicates; controls 0 of 18).
KLQQQSEYWSRNKNSVA / QASTREQ / QQYHRLPLS: 2.3 nM (6 of 6 replicates; controls 0 of 18).
KLSQSHLYESRNKNSVA / QASTRLS / QQYHRLPLS: 1.8 nM (6 of 6 replicates; controls 5 of 18).
LISSVWDYGSRNYNSVA / QTSTRES / QQYDRLPLD: 230 nM (5 of 6 replicates; controls 1 of 18).
KYSQSVPYESANKNSVA / WASTRES / QQYHRLPLS: nd (0 of 6 replicates; controls 0 of 18).
MISMNIYGLYRNRDNVA / HGSMREN / QCYDRLPLS: 13 nM (6 of 6 replicates; controls 0 of 18).
KQSQSVLYEGRNKNSVA / MASTRES / QQYHRLPLS: 25 nM (2 of 6 replicates; controls 0 of 18).
KLSQSMLYESRNKNSVA / EASQRES / QQYHRLPLS: 270 pM (6 of 6 replicates; controls 1 of 18).
RMDMALTHAHNNVNSIA / EGAMVAD / QQYDRLPLW: 61 nM (6 of 6 replicates; controls 0 of 18).
HMSQVTMYGYWLKNSVA / QTSTREE / QQYDRLPLS: 8.7 nM (6 of 6 replicates; controls 1 of 18).
KSSQSWLYESRNKNSVA / GASTREC / QQYHRLPLS: 640 pM (6 of 6 replicates; controls 0 of 18).
NFSQMVSTGMTLRNSVA / HASTRFN / QQYHRLPLI: 20 nM (6 of 6 replicates; controls 0 of 18).
KASYSVLYESTGKNSVA / WASTREP / QQYHRLPLS: 62 nM (5 of 6 replicates; controls 1 of 18).
KSSQSVLFERRNKNSVA / WVSTRES / QQYHYLPLS: nd (0 of 6 replicates; controls 0 of 18).
HITMGMYVKGRHHSSIA / QAETRAE / QQYDRLPLI: 10 nM (6 of 6 replicates; controls 0 of 18).
KSSISQLYESRNKNSVA / EASTRES / QQYHRLPLM: 1.1 nM (6 of 6 replicates; controls 1 of 18).
KYYQSYLYESRNKNSVA / QASTRES / QQYHLLPLS: 5.5 nM (6 of 6 replicates; controls 0 of 18).
IVSQLMLWGMHAKNSIA / EAHTRLN / QQYDRLPLF: nd (0 of 6 replicates; controls 0 of 18).

Top 5 of the variants detected in all replicates, tightest first:

{"CDR-L1": "KLSQSMLYESRNKNSVA", "CDR-L2": "EASQRES", "CDR-L3": "QQYHRLPLS", "Kd (apparent)": "270 pM", "seen in": "6/6", "control signals": "1/18"}
{"CDR-L1": "KLSPSVLYESRNKNSVA", "CDR-L2": "EASTREQ", "CDR-L3": "QQYHRLPLS", "Kd (apparent)": "370 pM", "seen in": "6/6", "control signals": "2/18"}
{"CDR-L1": "KLAQSDLYESRNKNSVA", "CDR-L2": "EASTRES", "CDR-L3": "QQYHRLPLS", "Kd (apparent)": "550 pM", "seen in": "6/6", "control signals": "0/18"}
{"CDR-L1": "KSSQSWLYESRNKNSVA", "CDR-L2": "GASTREC", "CDR-L3": "QQYHRLPLS", "Kd (apparent)": "640 pM", "seen in": "6/6", "control signals": "0/18"}
{"CDR-L1": "KFMQSQLYESRNKNSVA", "CDR-L2": "NASQRES", "CDR-L3": "QQYHRLPLS", "Kd (apparent)": "980 pM", "seen in": "6/6", "control signals": "1/18"}

The authors' rule: three or more of the six replicates give a measured affinity, fewer mean a poor binder. A sequence measured in both rounds can read differently, since the two assays cover different ranges. Empty control strains, which show no peptide, gave a signal in 4% of pairings with all light chain designs; the median was 430 nM and 95% of these signals were weaker than 38 nM. No background was subtracted. The control count says in how many pairings with the empty strains this scFv gave a signal.